The subject of test [1] is re-uptake of ^3 H-dopamine. The test can be described thus: Re-uptake of 3H-dopamine in vitro (synaptosomes, P2 fraction of whole brain). Format: biochemical, Std: Wistar strain male rat. The settings on record: Experiment II, rat brain synaptosomes, 37° C., 20 minutes. The method, then: Effect of the test samples on the re-uptake of ^3 H-dopamine in vitro
P2 fraction was prepared from the whole brain of Std: Wistar strain male rat. […] The obtained mixture was incubated at 37° C. for 20 minutes and then subjected to the suction filtration with Whatman GF/B filter paper.
The obtained filter paper was put in a vial containing 10 ml of toluene type scintillator and its radioactivity was measured by means of liquid scintillation counter. The amount of the specific re-uptake of ^3 H-dopamine was obtained by subtracting the amount of re-uptake at 0° C. as blank.

In test [2] the test system is depletion of dopamine induced by MPTP in mice whole brain. Set-up: species or system SlC: ddy strain male mice. Conditions: mouse, in vivo.

Where “and” joins values, the source holds several entries; their conditions need not be identical. Equal values may be shown once.

What is called IC50 is the concentration needed to halve the response being measured. Lower therefore signals inhibition by little substance. Take `CN(C)CC/C=C1\c2ccccc2CSc2ccccc21` [Dosulepin, dosulepin]: inhibition in test [1] was half-maximal at 9.6 µM (IC50).
On to `O=C(O)/C=C\C(=O)O.c1csc(Cc2ccccc2OCC2CNCCO2)c1` (centres unmarked) [Sufoxazine, sufoxazine], for which, in test [2], the “Percentage of the amount of dopamine in the treated group against the amount of dopamine in the non-treated group” value was 76 ± 17% and 68 ± 14%.

The values are drawn from patent US4939175A, “Use of N,N-dimethyl-1-[1-(4-chlorophenyl)cyclobutyl]-3-methylbutylamine” (priority 1988, dated 1990).
